From BindingDB's records for doi:10.1002/1098-2396(20010101)39:1 (Nih, 2001)
Values joined by “and” are separate entries in the source; they are usually repeats but may differ in a detail not shown here. Identical values can stand only once. Counter-ions that a name gives are not always drawn.

Protein sequences, listed by entry. Tags and fused reporters are not part of them.
UniProt P23977, whole entry: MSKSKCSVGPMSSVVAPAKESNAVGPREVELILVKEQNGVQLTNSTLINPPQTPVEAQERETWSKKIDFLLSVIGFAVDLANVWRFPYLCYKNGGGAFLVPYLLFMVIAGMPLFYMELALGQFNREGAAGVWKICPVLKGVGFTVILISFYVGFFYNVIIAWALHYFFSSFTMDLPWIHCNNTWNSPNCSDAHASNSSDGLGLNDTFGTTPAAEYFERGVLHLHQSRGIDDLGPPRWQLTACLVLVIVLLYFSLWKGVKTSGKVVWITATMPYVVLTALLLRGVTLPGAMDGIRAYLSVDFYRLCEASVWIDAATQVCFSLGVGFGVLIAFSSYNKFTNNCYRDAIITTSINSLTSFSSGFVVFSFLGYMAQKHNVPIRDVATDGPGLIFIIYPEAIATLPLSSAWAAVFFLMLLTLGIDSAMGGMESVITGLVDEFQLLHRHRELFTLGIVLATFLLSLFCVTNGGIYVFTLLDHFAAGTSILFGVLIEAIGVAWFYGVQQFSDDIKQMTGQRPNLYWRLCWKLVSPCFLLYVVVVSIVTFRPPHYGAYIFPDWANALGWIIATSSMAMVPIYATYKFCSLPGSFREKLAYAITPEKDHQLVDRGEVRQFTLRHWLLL
UniProt P31652, whole entry: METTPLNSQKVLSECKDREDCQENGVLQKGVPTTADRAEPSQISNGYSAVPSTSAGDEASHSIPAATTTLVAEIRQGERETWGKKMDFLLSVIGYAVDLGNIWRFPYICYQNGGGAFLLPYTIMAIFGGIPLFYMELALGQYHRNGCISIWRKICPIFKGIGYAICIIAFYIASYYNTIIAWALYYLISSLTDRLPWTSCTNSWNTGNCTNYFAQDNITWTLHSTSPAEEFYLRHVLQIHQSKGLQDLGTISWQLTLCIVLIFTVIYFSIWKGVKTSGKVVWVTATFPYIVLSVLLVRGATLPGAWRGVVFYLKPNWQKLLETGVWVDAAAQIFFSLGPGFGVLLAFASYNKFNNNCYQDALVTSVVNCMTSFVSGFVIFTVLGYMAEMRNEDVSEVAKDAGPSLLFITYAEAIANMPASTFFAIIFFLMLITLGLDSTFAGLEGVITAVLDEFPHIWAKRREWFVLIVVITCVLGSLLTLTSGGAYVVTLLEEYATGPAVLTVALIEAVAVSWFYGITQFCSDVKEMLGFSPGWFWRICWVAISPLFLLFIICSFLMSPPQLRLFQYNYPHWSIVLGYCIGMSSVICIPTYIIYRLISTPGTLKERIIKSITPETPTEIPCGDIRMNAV

How the values were obtained:
[1] = molecular target: Sodium-dependent dopamine transporter (Rattus norvegicus, UniProt P23977)
[2] = molecular target: Sodium-dependent serotonin transporter (Rattus norvegicus, UniProt P31652)

Row | Compound | Ki [1] [µM] | Ki [2]
1 | CN(C)CCCC1(c2ccc(F)cc2)OCc2cc(C#N)ccc21 (configuration not stated) [CITALOPRAM HYDROBROMIDE] | > 10 | –
2 | CN[C@@H](C)Cc1ccccc1 [METHAMPHETAMINE (+)] | – | 2.14 µM and > 10 µM
